Assays:
T cell clones = assay: Expanded T cell clones by T cell receptor sequencing (TCRseq); details: Monotherapy setting
PD-1 = PD-1 (Homo sapiens, UniProt Q15116); assay: PD-1 receptor occupancy on CD4 T cells by flow cytometry; details: doses of >225 mg

Protein sequences, listed by entry. Tags and fused reporters are not part of them. Residues count along the entry.
UniProt Q15116, 25-288: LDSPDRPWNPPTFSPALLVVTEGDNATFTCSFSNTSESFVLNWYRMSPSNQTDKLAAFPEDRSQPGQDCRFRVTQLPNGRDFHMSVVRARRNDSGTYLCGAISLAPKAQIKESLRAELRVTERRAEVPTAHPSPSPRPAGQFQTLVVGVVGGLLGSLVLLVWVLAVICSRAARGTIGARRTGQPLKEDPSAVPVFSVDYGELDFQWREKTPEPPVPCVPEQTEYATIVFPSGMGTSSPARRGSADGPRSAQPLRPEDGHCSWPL

With “MEDI5752: anti-PD-1/CTLA-4 bispecific antibody; light chain SEQ ID NO:1 and heavy chain SEQ ID NO:2 (PD-1), light chain SEQ ID NO:3 and heavy chain SEQ ID NO:4 (CTLA-4)” the T cell expansion (T cell clones) was “plateauing at 500/750 mg and above” and the “Sustained peripheral PD-1 receptor occupancy” value (PD-1) was over 90%.
